Results: patent publication US9676712B2, “Lactam compounds as EP4 receptor-selective agonists for use in the treatment of EP4-mediated diseases and conditions” (Cayman Chemical Company, Inc., priority 2013, dated 2017)

Amino acid sequences for entries named in this document (tags omitted). A change or cut given only in a name is not applied to a line headed by its entry.
UniProt P35408: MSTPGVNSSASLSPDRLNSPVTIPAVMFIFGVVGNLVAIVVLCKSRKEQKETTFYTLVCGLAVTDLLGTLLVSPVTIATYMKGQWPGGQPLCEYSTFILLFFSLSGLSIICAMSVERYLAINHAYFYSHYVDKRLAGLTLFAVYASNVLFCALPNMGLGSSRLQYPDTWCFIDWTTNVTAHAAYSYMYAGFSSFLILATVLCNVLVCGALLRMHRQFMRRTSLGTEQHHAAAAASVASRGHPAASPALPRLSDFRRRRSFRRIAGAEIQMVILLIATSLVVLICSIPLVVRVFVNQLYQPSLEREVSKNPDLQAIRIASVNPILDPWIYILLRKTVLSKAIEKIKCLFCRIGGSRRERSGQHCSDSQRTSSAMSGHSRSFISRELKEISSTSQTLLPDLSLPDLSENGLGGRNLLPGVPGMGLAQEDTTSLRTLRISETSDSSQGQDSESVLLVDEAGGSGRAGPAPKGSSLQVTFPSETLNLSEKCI

Target: Human Prostanoid EP4 Receptor (Homo sapiens (Human), UniProt P35408)
Assay: Radioligand binding assay, agonist site of the human prostanoid EP4 receptor in transfected HEK-293 cells ([3H]PGE2)
Description: Radioligand Binding Assay for the Evaluation of the Affinity of Compounds for the Agonist Site of the Human Prostanoid EP4 Receptor in Transfected HEK-293 Cells
Following incubation, the samples are filtered rapidly under vacuum through glass fiber filters (GF/B, Packard) presoaked with 0.3% PEI and rinsed several times with ice-cold 50 mM Tris-HCl using a 96-sample cell harvester (Unifilter, Packard). The filters are dried then counted for radioactivity in a scintillation counter (Topcount, Packard) using a scintillation cocktail (Microscint 0, Packard).

IC50 (read-out: hEP4 receptor binding IC50): 5.7 nM
Ki (read-out: hEP4 receptor binding Ki): 2.1 nM
Structure (SMILES): CC(CCCc1ccccc1)[C@H](O)/C=C/[C@H]1CCC(=O)N1CCCCCCC(=O)O (mixture of isomers) [Example 2C, 7-((2R)-2-((3S,E)-3-hydroxy-4-methyl-7-phenylhept-1-en-1-yl)-5-oxopyrrolidin-1-yl)heptanoic acid]
